This is a selection; strong and weak results do not stand in their true shares. Activity calls are given as the source filed them.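 How the source made its calls: active means activation above the mean of all tested compounds plus 3 SD, cutoff set per screening run (cut at about 20% in these data); inactive means the rest.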

Amino acid sequences for entries named in this document (tags omitted).
UniProt P30559, whole entry: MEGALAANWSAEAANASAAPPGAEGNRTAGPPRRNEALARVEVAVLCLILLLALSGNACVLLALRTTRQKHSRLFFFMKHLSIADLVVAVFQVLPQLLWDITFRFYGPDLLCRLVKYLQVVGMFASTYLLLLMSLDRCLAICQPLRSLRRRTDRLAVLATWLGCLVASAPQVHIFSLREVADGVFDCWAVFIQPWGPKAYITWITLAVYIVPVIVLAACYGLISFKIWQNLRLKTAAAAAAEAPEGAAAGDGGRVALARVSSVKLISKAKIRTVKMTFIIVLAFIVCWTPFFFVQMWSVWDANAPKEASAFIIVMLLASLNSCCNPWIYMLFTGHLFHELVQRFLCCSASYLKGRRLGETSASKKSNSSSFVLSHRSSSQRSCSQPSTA

The target in the experiment is Oxytocin receptor (Homo sapiens) (UniProt P30559). Briefly: human OXTR agonists, primary screen, fluorescence, CHO-OTR cells, Fluo-8 calcium (AID 2435).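 Further: peak over basal fluorescence ratio from a 100 s FLIPR kinetic read.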 As to conditions: Fluo-8 calcium fluorescence, at 3 µM, hits give high values, normalized: DMSO 0%, oxytocin 100%.
For `COc1ccc(Cl)cc1C(=O)NCC1(N2CCOCC2)CCCCC1`, the activation is inactive: -2.01%. With `CCOC(=O)N1CCC(Nc2ccc(OC)cc2)CC1` the figure was inactive: -0.52%; with `CCOc1ccc(C)cc1CN(CCCl)CCCl`, inactive: -1.1%; with `O=C(NCC1(N2CCCCC2)CCCCC1)c1ccc(F)cc1`, inactive: -1.22%.

Regarding `COc1ccc(NC2CCN(CCc3ccccc3)CC2)c(OC)c1`, the activation is inactive: 0.8%.

On to `CCOC(=O)N1CCC(Nc2cccc(C)c2)CC1`, for which the activation is inactive: -1.1%. Regarding `Cc1ccc(OCC(C)C)c(CN(CCCl)CCCl)c1`, the activation was inactive: -1.46%.

With `COc1cc(OC)cc(C(=O)NCC2(N3CCCCC3)CCCCC2)c1`, the activation was inactive: -0.42%. On to `Cc1ccc(C(=O)NCC2(N3CCCCC3)CCCCC2)o1`, for which the activation is inactive: -0.72%.

On to `Fc1ccccc1NC1CCN(Cc2ccccc2)CC1`, for which the activation was inactive: -1.05%. For `CCN1CCC(Nc2cccc(F)c2)CC1`, the activation is inactive: -0.41%.

With `O=C(NCC1(N2CCCCC2)CCCCC1)c1ccco1`, the activation was inactive: -0.78%.

`CN(C)c1ccc(C(=O)NCC2(N3CCCCC3)CCCCC2)cc1`: the activation was inactive: 1.02%. With `CCOc1ncccc1C(=O)NCC1(N2CCOCC2)CCCCC1` the figure was inactive: -1.62%; with `CN1CCC(Nc2ccc(F)c(Cl)c2)CC1`, inactive: 0.33%. The figure for `CC(C)(C)OC(=O)N1CCC(Nc2ccccc2)CC1` is inactive: -0.36%; for `O=C(O)C1(Nc2ccccc2)CCN(Cc2ccccc2)CC1` it is inactive: -0.21%; for `CCCOc1ccc(C(=O)NCC2(N(C)C)CCCCC2)cc1` it is inactive: 0.15%.

Consider `COc1cc(OC)cc(C(=O)NCC2(N3CCOCC3)CCCCC2)c1`, for which the activation is inactive: 0.21%. The figure for `COc1cccc(C(=O)N(c2cc(C)cc(C)c2)C2CCN(C(=O)OC(C)(C)C)CC2)c1` is inactive: -2.33%; for `CCC(CO)(C(=O)OC1CN2CCC1CC2)c1ccccc1` (stereo not given) it is inactive: 0.74%; for `CN1CCC(Nc2ccc(Cl)cc2)CC1` it is inactive: 0.54%.

Regarding `CCCOc1ccc(C)cc1CN(CCCl)CCCl`, the activation is inactive: -2.01%. Consider `COc1cc(C(=O)NCC2(N3CCOCC3)CCCCC2)cc(OC)c1C`, for which the activation is inactive: -1.53%. With `O=C(NCC1(N2CCOCC2)CCCCC1)c1cc(Br)ccc1Cl`, the activation is inactive: -2.33%.

Regarding `COc1ccc(C(=O)NCC2(N3CCOCC3)CCCCC2)cc1OC`, the activation is inactive: -0.15%. `CCOC(=O)N1CCC(Nc2ccc(C)cc2)CC1`: the activation is inactive: -2.07%.

On to `N/C(=N\O)c1c(N)no[n+]1[O-]`, for which the activation was inactive: -0.79%. With `CCc1cc(C(=O)NCC2(N3CCCCC3)CCCCC2)sc1C`, the activation is inactive: -1.01%. As for `O=C(OC1CN2CCC1CC2)C1c2ccccc2C=Cc2ccccc21` (stereo not given), the activation was inactive: 5.2%.

`N#Cc1ccc(C(=O)NCC2(N3CCCCC3)CCCCC2)cc1`: the activation was inactive: -0.55%. With `CC(C)(C)OC(=O)N1CCC(N(C(=O)c2ccccc2)c2ccc(Cl)cc2)CC1` the figure was inactive: -1.76%. The figure for `CN(C)C1(CNC(=O)c2cccc(C#N)c2)CCCCC1` is inactive: 0.22%; for `c1ccc(CN2CCC(Nc3ccccc3)CC2)cc1` it is inactive: -0.19%. As for `CCCN1CCC(Nc2cc(OC)cc(OC)c2)CC1`, the activation was inactive: -0.3%.

(Values after PubChem BioAssay AID2435 (The Scripps Research Institute Molecular Screening Center, 2010).)
